Only some compounds are listed: those with a hit (about 2.3% of all), similar ones and a draw of the others.
Nrf2 block – Nrf2 pathway inhibition. A549 ARE-Fluc reporter, luciferase luminescence, 18-24 h. Potency, µM (series often up to 46 µM), without a hit: top-dose activity change, negative = inhibition, hits mostly inhibitors. hit rate 2.1% among 360,000. AID 504444; further: potency means the concentration at half of the fitted maximal effect; on the % scale 0 is the no-effect control and ±100 the full control effect; nearly all actives have a fitted effect of over 60% in size
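In this cell-based qHTS, ARE-driven firefly luciferase in A549 cells reports Nrf2 activity; the luminescent signal after BugLite lysis is the measured value, with a prior CellTiter-Fluor read for cell health.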
Mito fusion yeast – mitochondrial division inhibition or fusion activation | hit rate 0.23% among 320,000 | Potency, µM (highest dose often 46.1 µM), for inactives: at the highest dose growth rescue (activation), most hits filed as activators | S. cerevisiae fusion-defective mutant growth rescue, CellTiterGlo 48 h; further: potency means the concentration at half of the fitted maximal effect; % of control where 0% means no effect; nearly all actives have a fitted effect of over 45% in size
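Luminescent cell viability in 1536-well qHTS format served as the measure of rescued growth in ts fusion-mutant S. cerevisiae cultured on non-fermentable YPEG for 48 hours at 37C.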
GRP78 ERSR act – ER stress response induction in glioma | U87-MG GRP78 promoter luciferase reporter, 16 h | Potency, µM, without a hit: top-dose activation, usual class: activators | hit rate 0.02% among 420,000 | AID 602332; further: potency means the concentration at half of the fitted maximal effect; series mostly up to about 76 µM; % of control where 0% means no effect; nearly all actives have a fitted effect of over 35% in size
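ERSR induction read as luciferase luminescence (Bright-Glo, 10 min at room temperature) in stably transfected human U87-MG glioma cells exposed to compounds for 16 h, using GRP78 as sensor.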
miR-21 FLuc – miR-21 reporter, rising signal | 340,000 tested, under 10 active | AID 2288 | HeLa miR-21 FLuc reporter, luciferase, 48 h | Potency, µM (titrated, usually from 38.3 µM), for inactives: at the highest dose reporter change, positive = more light; active = well fitted rising curve with a large enough effect; inconclusive = small, poorly fitted or top-dose-only effect; inactive = no such curve, though single readings can be large or run the other way;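 further: % of control where 0% means no effect; miR-21 action dims this reporter so a rising signal means less miR-21 action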
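Luminescence from a firefly luciferase reporter carrying a miR-21 binding site downstream, stably expressed under a CMV promoter in HeLa cells that make miR-21 endogenously, reports miRNA modulation after 48 h compound exposure up to approximately 40uM final.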
Nrf2 ARE act – activates Nrf2 signaling; Potency, µM (doses to about 46.1 µM), for the others: at the top dose activation, hits mostly activators; hit rate 0.31% among 410,000; AID 624171; AREc32 ARE-luciferase reporter (MCF7-derived line), luminescence, 24 h; further: potency means the concentration at half of the fitted maximal effect; % of control where 0% means no effect; nearly all actives have a fitted effect of over 65% in size
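ARE-driven firefly luciferase activity in AREc32 cells measured after a 24 hr compound exposure at 37 deg C, using Steady-Glo reagent and a 30 min room-temperature hold.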
A549 tox-1 – counter-screen for Nrf2 inhibitors: cytotoxicity in A549 cells. Potency, µM (top dose mostly 46 µM), for the others: at the top dose activity change, negative = cytotoxicity, usual class: inhibitors. AID 504648. A549 ARE-Fluc cells, CellTiter-Fluor viability, 18-24 h. hit rate 0.16% among 390,000; further: potency means the concentration at half of the fitted maximal effect; on the % scale 0 is the no-effect control and ±100 the full control effect
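A549 ARE-Fluc cells in 5% FBS OPTI-MEM, 5000 cells/well, rested 2 h then exposed to compounds in concentration-response for 18-24 h at 37 °C. Viability by CellTiter-Fluor fluorescence (Ex 405/Em 525) after 30 min; luciferase luminescence (BugLite, 15 min, RT) read afterwards.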
FLuc enzyme inh – firefly luciferase inhibition, Nrf2 hit validation; shares compounds with Nrf2 block; Potency, µM (series often up to 57.5 µM), for the others: at the top dose activity change, negative = inhibition, usual class: inhibitors; hit rate 4% among 1,400; purified firefly luciferase, luminescence inhibition; further: potency means the concentration at half of the fitted maximal effect; on the % scale 0 is the no-effect control and ±100 the full control effect; nearly all actives have a fitted effect of over 65% in size
A549 tox-2 – A549 cytotoxicity, Nrf2 inhibitor counterscreen. shares compounds with Nrf2 block. A549 ARE-Fluc cells, cytotoxicity counterscreen. Potency, µM (highest dose often 46.1 µM), inactives show at the top dose activity change, negative = cytotoxicity, most hits filed as inhibitors. hit rate 2% among 1,400. AID 720523;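 further: potency means the concentration at half of the fitted maximal effect; cells exposed to compounds for 18 to 24 hours; on the % scale 0 is the no-effect control and ±100 the full control effect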
Nrf2 ARE inh – reduces Nrf2 ARE reporter signal in A549 cells; A549 ARE-firefly luciferase reporter, luminescence; Potency, µM (highest dose often 46.1 µM), without a hit: at the top dose activity change, negative = inhibition, actives largely listed as inhibitors; shares compounds with Nrf2 block; hit rate 74% among 1,400; further: potency means the concentration at half of the fitted maximal effect; on the % scale 0 is the no-effect control and ±100 the full control effect; nearly all actives have a fitted effect of over 65% in size
Numbers without * were called inactive; [ ] = dose if it differs, or a comment. Unless noted, the call rests on the fitted dose curve; in most records, active means well fitted curve in the direction sought with a large enough effect; inconclusive means small, poorly fitted or top-dose-only effect, or another doubt; inactive means no such curve, though single readings can be large; an effect the other way counts as inactive or inconclusive.

For COc1ccc(OC)c(Nc2ncnc3sccc23)c1 the results were Nrf2 block 0%, Mito fusion yeast -12%, GRP78 ERSR act -3%, miR-21 FLuc -28%, Nrf2 ARE act 4% and A549 tox-1 0%.
COc1cc(CN(C)c2ncnc3sccc23)ccc1OC(F)F was read as Nrf2 block 9.2µM*, Mito fusion yeast 1%, GRP78 ERSR act -5%, miR-21 FLuc 10%, Nrf2 ARE act 3%, A549 tox-1 -16%, FLuc enzyme inh -4%, A549 tox-2 1% and Nrf2 ARE inh 8.2µM*.
`COc1ccccc1CNS(=O)(=O)c1ccc(-c2cc(C)no2)cc1` gave Nrf2 block 1%, Mito fusion yeast 3%, GRP78 ERSR act -7%, miR-21 FLuc 24%, Nrf2 ARE act 0% and A549 tox-1 0%.
`COc1cc(NS(=O)(=O)c2ccc(-c3cc(C)no3)cc2)cc(OC)c1` gave Nrf2 block 6.5µM*, GRP78 ERSR act -3%, miR-21 FLuc inconclusive, Nrf2 ARE act 1%, A549 tox-1 -4%, FLuc enzyme inh -2%, A549 tox-2 -19% and Nrf2 ARE inh 16µM*.
For Cn1c(C(=O)N[C@@H](Cc2ccccc2)C(=O)O)cc2cc(F)ccc21 the results were Nrf2 block 14%, Mito fusion yeast -4%, GRP78 ERSR act 2%, miR-21 FLuc 0%, Nrf2 ARE act 3% and A549 tox-1 4%.
`CC(C)Cn1c(SC(C)C(=O)Nc2ccc3c(c2)OCCO3)nc2ccccc2c1=O` (configuration not stated) gave Nrf2 block -21%, Mito fusion yeast -1%, GRP78 ERSR act -1%, miR-21 FLuc -9%, Nrf2 ARE act 0% and A549 tox-1 -1%.
Screening CC(Sc1nc2ccccc2c(=O)n1C)C(=O)Nc1ccc2c(c1)OCCO2 (configuration not stated) returned Nrf2 block 5.2µM*, Mito fusion yeast 0%, GRP78 ERSR act -1%, Nrf2 ARE act 0%, A549 tox-1 -13%, FLuc enzyme inh -1%, A549 tox-2 3% and Nrf2 ARE inh inconclusive.
Screening Cc1c(/C=N/NC(=O)c2cccnc2)c2ccccc2n1Cc1ccccc1 returned Nrf2 block 6.5µM*, Mito fusion yeast -4%, GRP78 ERSR act -4%, miR-21 FLuc 3%, Nrf2 ARE act 3%, A549 tox-1 inconclusive, FLuc enzyme inh inconclusive, A549 tox-2 -8% and Nrf2 ARE inh 9.2µM*.
Screening Cc1nn(Cc2ccccc2)c(Cl)c1/C=N/NC(=O)c1cccnc1 returned Nrf2 block inconclusive, Mito fusion yeast 1%, GRP78 ERSR act 0%, miR-21 FLuc 0%, Nrf2 ARE act 8% and A549 tox-1 inconclusive.
`COCCCN(C(=O)c1ccc(N2CCCC2=O)cc1)c1c(N)n(Cc2ccccc2)c(=O)[nH]c1=O` gave Nrf2 block 19%, Mito fusion yeast 1%, GRP78 ERSR act -6%, Nrf2 ARE act 0% and A549 tox-1 -5%.
CCCCN(C(=O)c1ccc(N2CCCC2=O)cc1)c1c(N)n(Cc2ccccc2)c(=O)[nH]c1=O was read as Nrf2 block 5.8µM*, Mito fusion yeast -6%, GRP78 ERSR act 10%, Nrf2 ARE act 0%, A549 tox-1 -9%, FLuc enzyme inh 0%, A549 tox-2 -10% and Nrf2 ARE inh 3.7µM*.
Screening COc1cc(C=NO)nc(-c2ccccn2)c1 returned Nrf2 block 1.2µM*, GRP78 ERSR act -4%, Nrf2 ARE act 0%, A549 tox-1 -23%, FLuc enzyme inh -12%, A549 tox-2 -6% and Nrf2 ARE inh 2.6µM*.
Screening N#Cc1cccc(NC(=O)CNc2cccc(S(=O)(=O)N3CCCC3)c2)c1 returned Nrf2 block 7.3µM*, Mito fusion yeast -5%, GRP78 ERSR act -3%, Nrf2 ARE act 4%, A549 tox-1 inconclusive, FLuc enzyme inh 2%, A549 tox-2 -7% and Nrf2 ARE inh inconclusive.
For O=C(CNc1cccc(C(F)(F)F)c1)Nc1cccc(S(=O)(=O)N2CCCC2)c1 the results were Nrf2 block inconclusive, Mito fusion yeast -2%, GRP78 ERSR act -2%, Nrf2 ARE act 0% and A549 tox-1 -23%.
`O=C(CNc1cc(S(=O)(=O)N2CCCC2)ccc1OCC(F)(F)F)Nc1cccc(C(F)(F)F)c1` gave Nrf2 block 7.3µM*, Mito fusion yeast -4%, GRP78 ERSR act -4%, miR-21 FLuc 26%, Nrf2 ARE act -1%[9.22 µM], A549 tox-1 -19%, FLuc enzyme inh 0%, A549 tox-2 -18% and Nrf2 ARE inh 13µM*.
For CCN(CC)S(=O)(=O)c1cc(NC(=O)CNc2cccc(S(=O)(=O)N3CCOCC3)c2)ccc1C the results were Nrf2 block 0.58µM*, Mito fusion yeast -3%, GRP78 ERSR act -5%, Nrf2 ARE act 0%, A549 tox-1 -20%, FLuc enzyme inh 0%, A549 tox-2 -16% and Nrf2 ARE inh 3.7µM*.
For N#Cc1cccc(NCC(=O)Nc2cccc(S(=O)(=O)N3CCCCC3)c2)c1 the results were Nrf2 block inconclusive, Mito fusion yeast -1%, GRP78 ERSR act -4%, Nrf2 ARE act 0% and A549 tox-1 -2%.
Cn1ccc2c(-c3cncc4ccccc34)cc3c(c21)C1CCC3O1 (configuration not stated) was read as GRP78 ERSR act -5% and Nrf2 ARE act 4%.
Screening CCCCN1CCC2C=CCC(C(=O)O)C2C1=O (configuration not stated) returned Nrf2 block -22%, GRP78 ERSR act -4% and A549 tox-1 1%.
`CC(=O)c1c(C)[nH]c(C(=O)OCc2ccccc2)c1C` gave Nrf2 block inconclusive, Mito fusion yeast inconclusive, GRP78 ERSR act 6%, miR-21 FLuc -33%, Nrf2 ARE act 16% and A549 tox-1 4%.

Part of the list above in order of SMILES length, low to high:
For COc1ccc(OC)c(Nc2ncnc3sccc23)c1 the results were Nrf2 block 0%, Mito fusion yeast -12%, GRP78 ERSR act -3%, miR-21 FLuc -28%, Nrf2 ARE act 4% and A549 tox-1 0%.
Cn1ccc2c(-c3cncc4ccccc34)cc3c(c21)C1CCC3O1 (configuration not stated) was read as GRP78 ERSR act -5% and Nrf2 ARE act 4%.
For N#Cc1cccc(NCC(=O)Nc2cccc(S(=O)(=O)N3CCCCC3)c2)c1 the results were Nrf2 block inconclusive, Mito fusion yeast -1%, GRP78 ERSR act -4%, Nrf2 ARE act 0% and A549 tox-1 -2%.

High-throughput results (PubChem)
